Tests used:
[1] = biological target: Multidrug resistance-associated protein 1 (Homo sapiens, UniProt P33527); settings: mdck
[2] = biological target: ATP-dependent translocase ABCB1 (Homo sapiens, UniProt P08183); test: Inhibition of MDR1 expressed in MDCK cells assessed as calcein AM accumulation by fluorescence assay

Protein sequences, listed by entry. Tags and fused reporters are not part of them. Lines headed by an entry give the natural chain unless they say otherwise; changes in a name come on top.
UniProt P33527: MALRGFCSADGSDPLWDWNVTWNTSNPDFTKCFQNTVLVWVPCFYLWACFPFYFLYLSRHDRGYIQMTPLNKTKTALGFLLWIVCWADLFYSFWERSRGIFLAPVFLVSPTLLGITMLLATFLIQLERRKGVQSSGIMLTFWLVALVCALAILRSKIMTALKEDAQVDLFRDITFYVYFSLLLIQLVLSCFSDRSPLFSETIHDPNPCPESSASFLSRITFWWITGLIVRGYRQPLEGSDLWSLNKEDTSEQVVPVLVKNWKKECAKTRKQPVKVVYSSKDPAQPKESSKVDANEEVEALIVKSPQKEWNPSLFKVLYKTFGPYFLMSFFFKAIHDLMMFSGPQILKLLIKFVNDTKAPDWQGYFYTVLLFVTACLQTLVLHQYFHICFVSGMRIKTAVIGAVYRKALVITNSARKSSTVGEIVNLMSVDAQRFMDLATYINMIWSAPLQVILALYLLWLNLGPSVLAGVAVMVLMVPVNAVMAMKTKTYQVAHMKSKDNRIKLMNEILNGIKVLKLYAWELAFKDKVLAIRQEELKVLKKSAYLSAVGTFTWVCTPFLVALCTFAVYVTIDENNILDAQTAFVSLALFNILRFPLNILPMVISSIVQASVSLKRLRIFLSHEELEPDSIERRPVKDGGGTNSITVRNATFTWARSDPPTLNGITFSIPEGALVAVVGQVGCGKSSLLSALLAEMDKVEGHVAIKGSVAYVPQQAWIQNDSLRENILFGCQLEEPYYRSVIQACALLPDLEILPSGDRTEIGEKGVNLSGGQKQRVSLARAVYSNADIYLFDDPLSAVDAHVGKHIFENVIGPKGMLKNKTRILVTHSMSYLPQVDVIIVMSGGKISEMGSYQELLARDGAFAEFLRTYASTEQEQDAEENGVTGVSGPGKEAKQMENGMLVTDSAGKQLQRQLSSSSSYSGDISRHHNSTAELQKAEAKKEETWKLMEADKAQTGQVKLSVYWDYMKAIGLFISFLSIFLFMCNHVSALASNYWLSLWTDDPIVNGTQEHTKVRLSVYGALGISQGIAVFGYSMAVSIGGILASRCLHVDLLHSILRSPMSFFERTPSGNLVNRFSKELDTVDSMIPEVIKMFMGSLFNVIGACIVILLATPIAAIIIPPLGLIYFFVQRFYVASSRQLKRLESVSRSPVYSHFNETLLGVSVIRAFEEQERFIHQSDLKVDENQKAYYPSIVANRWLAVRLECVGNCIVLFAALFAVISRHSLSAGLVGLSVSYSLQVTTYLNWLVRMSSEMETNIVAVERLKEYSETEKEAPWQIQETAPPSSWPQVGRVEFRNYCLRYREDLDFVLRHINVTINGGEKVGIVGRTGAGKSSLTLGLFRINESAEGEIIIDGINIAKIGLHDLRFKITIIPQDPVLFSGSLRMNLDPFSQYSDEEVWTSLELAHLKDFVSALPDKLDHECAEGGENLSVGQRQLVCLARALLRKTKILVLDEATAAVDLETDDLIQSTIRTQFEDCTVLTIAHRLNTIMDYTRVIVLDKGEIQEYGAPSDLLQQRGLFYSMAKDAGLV
UniProt P08183, whole entry, looked up: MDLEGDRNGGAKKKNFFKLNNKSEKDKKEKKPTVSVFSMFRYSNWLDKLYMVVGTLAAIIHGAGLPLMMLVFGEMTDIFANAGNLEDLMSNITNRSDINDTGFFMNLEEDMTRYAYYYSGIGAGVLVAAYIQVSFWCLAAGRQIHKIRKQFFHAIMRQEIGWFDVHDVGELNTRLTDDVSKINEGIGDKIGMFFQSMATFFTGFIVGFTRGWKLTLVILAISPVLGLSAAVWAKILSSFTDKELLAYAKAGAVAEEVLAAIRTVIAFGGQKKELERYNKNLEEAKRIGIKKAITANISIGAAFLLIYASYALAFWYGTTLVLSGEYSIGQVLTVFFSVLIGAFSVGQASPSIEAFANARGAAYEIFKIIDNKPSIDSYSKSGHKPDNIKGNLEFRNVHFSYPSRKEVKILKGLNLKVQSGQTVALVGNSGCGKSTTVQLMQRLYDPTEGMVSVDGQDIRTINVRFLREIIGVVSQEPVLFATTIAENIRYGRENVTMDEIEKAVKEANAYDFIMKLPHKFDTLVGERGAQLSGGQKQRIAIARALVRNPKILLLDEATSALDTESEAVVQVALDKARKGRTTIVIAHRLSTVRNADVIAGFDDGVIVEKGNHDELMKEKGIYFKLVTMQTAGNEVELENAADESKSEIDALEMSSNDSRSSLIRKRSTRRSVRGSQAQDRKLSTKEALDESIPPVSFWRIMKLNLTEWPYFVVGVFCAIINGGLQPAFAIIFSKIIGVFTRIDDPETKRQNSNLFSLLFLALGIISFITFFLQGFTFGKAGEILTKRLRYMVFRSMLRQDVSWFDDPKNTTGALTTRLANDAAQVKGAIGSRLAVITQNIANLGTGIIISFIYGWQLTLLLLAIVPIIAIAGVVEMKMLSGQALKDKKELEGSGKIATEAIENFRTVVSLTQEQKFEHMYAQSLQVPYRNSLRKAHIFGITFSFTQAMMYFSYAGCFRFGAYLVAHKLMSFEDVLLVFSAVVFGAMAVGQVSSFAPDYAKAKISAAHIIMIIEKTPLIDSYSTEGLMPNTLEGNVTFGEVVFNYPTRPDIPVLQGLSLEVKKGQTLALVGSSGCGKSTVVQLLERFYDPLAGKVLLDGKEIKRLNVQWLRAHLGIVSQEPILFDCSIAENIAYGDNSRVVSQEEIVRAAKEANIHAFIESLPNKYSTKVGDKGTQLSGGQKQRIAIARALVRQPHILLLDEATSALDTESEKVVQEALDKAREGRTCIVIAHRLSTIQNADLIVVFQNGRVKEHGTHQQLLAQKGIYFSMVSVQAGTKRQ

O=[N+]([O-])c1no[n+]([O-])c1-c1ccccc1
EC50 [1]: 98 µM | EC50 [2]: > 100 µM

— ChEMBL document CHEMBL1212912, “Phenylsulfonylfuroxans as modulators of multidrug-resistance-associated protein-1 and P-glycoprotein” (J Med Chem, 2010)
